Results taken from patent US10125150B2, “Crystalline forms of a PI3K inhibitor” (Incyte Corporation, priority 2015, dated 2018).

Target: human JAK1 (a.a. 837-1142) (Homo sapiens, UniProt P23458)
Assay: In vitro JAK kinase assay (Example D), JAK1
Format: biochemical
Conditions: 1 mM ATP

IC50: < 0.01 µM
Structure (SMILES): CN(C)Cc1cc(F)cc(OC2CCN(CC(CC#N)n3cc(-c4ncnc5[nH]ccc45)cn3)CC2)c1 (single isomer, unassigned) [Form 14, 4-(4-{3-[(dimethylamino)methyl]-5-fluorophenoxy}piperidin-1-yl)-3-[4-(7H-pyrrolo[2,3-d]pyrimidin-4-yl)-1H-pyrazol-1-yl]butanenitrile]
